Compound activity: PubChem BioAssay, National Center for Advancing Translational Sciences (NCATS)
Rows were chosen to be rich in hits. Some 16% of all compounds tested hit in one or more screens of this group.
miR-21 reporter – miR-21 reporter, rising signal. HeLa miR-21 FLuc reporter, luciferase, 48 h. Potency, µM (titrated, usually from 38.3 µM), without a hit: at the top dose reporter change, positive = more light. 340,000 tested, under 10 active. AID 2288; active = well fitted rising curve with a large enough effect; inconclusive = small, poorly fitted or top-dose-only effect; inactive = no such curve, though single readings can be large or run the other way;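 also: % of control where 0% means no effect; miR-21 action dims this reporter so a rising signal means less miR-21 action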
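HeLa cells stably expressing CMV-driven firefly luciferase with a downstream miR-21 binding sequence, endogenously expressing miR-21, were treated with titrations (up to about 40uM final) for 48 hours at 37 degree Celsius. Luciferase luminescence was read after lysis.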
TDP1 block – blocks human tyrosyl-DNA phosphodiesterase 1 | Q9NUW8 | recombinant TDP1, AlphaScreen DNA substrate cleavage | Potency, µM (highest dose often 130 µM), inactives show at the top dose activity change, negative = inhibition, actives largely listed as inhibitors | 0.28% of 350,000 active; note: potency is the fitted concentration of half-maximal effect; % is set by controls: 0 for no effect and ±100 for the full control effect; nearly all actives have a fitted effect of over 40% in size
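AlphaScreen read-out: signal falls as enzyme removes the 3' tyrosine-FITC from a 5'-biotinylated DNA oligo (15 nM, 5 min, RT). Enzyme was E. coli-made recombinant Tdp1 at 1 nM, exposed to compound for 15 min beforehand; beads 10 ug/ml, 10 min.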
uPA generation – inhibitors of cell surface uPA generation | Potency, µM (top dose mostly 38.3 µM), inactives show at the highest dose activity change, negative = inhibition, actives largely listed as inhibitors | 0.31% of 330,000 active | cell surface uPA generation assay, qHTS | AID 540303; active = well fitted inhibition curve with a large enough effect; inconclusive = small, poorly fitted or top-dose-only effect; inactive = no such curve, though single readings can be large or run the other way; tested in mouse RAW 264.7 cells; note: potency is the fitted concentration of half-maximal effect; % is set by controls: 0 for no effect and ±100 for the full control effect; nearly all actives have a fitted effect of over 55% in size
DT40 TDP1 no CPT – qHTS for Inhibitors of human tyrosyl-DNA phosphodiesterase 1 (TDP1): qHTS in cells in absence of CPT. DT40 Tdp1-/- hTDP1 cells, no CPT, ATP luminescence, 48 h. Potency, µM (doses to about 46.2 µM), for inactives: top-dose activity change, negative = growth inhibition, usual class: inhibitors. 15% of 420,000 active. AID 686978, 2013; note: potency is the fitted concentration of half-maximal effect; % is set by controls: 0 for no effect and ±100 for the full control effect; nearly all actives have a fitted effect of over 55% in size
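Growth kinetics read by CellTiter-Glo luminescence after ≥48 hr at 37 °C. Cells: DT40 Tdp1-/- stably carrying human TDP1, 400 per well, compound exposure in the absence of CPT (DMSO vehicle).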
TDP1 cell CPT – growth inhibition of DT40 Tdp1-/-;hTDP1 cells with camptothecin (screen for TDP1 inhibitors) | 12% of 420,000 active | AID 686979 | Potency, µM (series often up to 46.2 µM), inactives show at the highest dose activity change, negative = growth inhibition, actives largely listed as inhibitors | chicken DT40 Tdp1-/-;hTDP1 cells + 20 nM CPT, ATP luminescence, 48 h; note: potency is the fitted concentration of half-maximal effect; % is set by controls: 0 for no effect and ±100 for the full control effect; nearly all actives have a fitted effect of over 55% in size
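Cell growth measured by CellTiter-Glo luminescence after a minimum 48 h, 37 C compound exposure with 20 nM CPT in Tdp1-knockout DT40 cells stably expressing hTDP1, seeded 400/well; qHTS titration format.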
An asterisk follows results filed as active. Unless noted, calls come from the whole dose curve; as a rule, active = well fitted curve in the direction sought with a large enough effect; inconclusive = small, poorly fitted or top-dose-only effect, or another doubt; inactive = no such curve, though single readings can be large; an effect the other way counts as inactive or inconclusive.

The first four records (preview)
O=C(O)c1ccc(/C=N/NC(=O)c2ccc3c(c2)OCCO3)cc1 was read as miR-21 reporter -13.0%, TDP1 block 5.4%, uPA generation inconclusive, DT40 TDP1 no CPT 1.5% and TDP1 cell CPT 13.9%.
For COC(=O)C1=C(Nc2cc(Cl)cc(Cl)c2)CSC1 the results were miR-21 reporter 1.3%, uPA generation 1.2%, DT40 TDP1 no CPT -26.0% and TDP1 cell CPT -6.7%.
`N#Cc1cnn(CC2CCCCC2)c1N` gave miR-21 reporter -5.9%, TDP1 block 2.1%, uPA generation 0.8%, DT40 TDP1 no CPT -21.7% and TDP1 cell CPT -8.6%.
For Cc1cccc(NC(=O)COc2coc(CN3CCN(Cc4ccccc4)CC3)cc2=O)c1 the results were TDP1 block -0.4%, uPA generation 2.8%, DT40 TDP1 no CPT inconclusive and TDP1 cell CPT -25.1%.

The listing, previewed entries included:
O=C(O)c1ccc(/C=N/NC(=O)c2ccc3c(c2)OCCO3)cc1 was read as miR-21 reporter -13.0%, TDP1 block 5.4%, uPA generation inconclusive, DT40 TDP1 no CPT 1.5% and TDP1 cell CPT 13.9%.
For COC(=O)C1=C(Nc2cc(Cl)cc(Cl)c2)CSC1 the results were miR-21 reporter 1.3%, uPA generation 1.2%, DT40 TDP1 no CPT -26.0% and TDP1 cell CPT -6.7%.
`N#Cc1cnn(CC2CCCCC2)c1N` gave miR-21 reporter -5.9%, TDP1 block 2.1%, uPA generation 0.8%, DT40 TDP1 no CPT -21.7% and TDP1 cell CPT -8.6%.
For Cc1cccc(NC(=O)COc2coc(CN3CCN(Cc4ccccc4)CC3)cc2=O)c1 the results were TDP1 block -0.4%, uPA generation 2.8%, DT40 TDP1 no CPT inconclusive and TDP1 cell CPT -25.1%.
Screening O=C(NN=Cc1c(O)ccc2ccccc12)c1ccc2c(c1)OCO2 returned TDP1 block -5.9%, uPA generation 8.91µM*, DT40 TDP1 no CPT 2.59µM* and TDP1 cell CPT 5.8µM*.
O=C(CNC(=O)c1ccc(S(=O)(=O)N2CCCC2)cc1)N/N=C/c1ccccc1Cl was read as miR-21 reporter -3.9%, TDP1 block 4.2%, uPA generation -3.8%, DT40 TDP1 no CPT 13µM* and TDP1 cell CPT inconclusive.
For Cc1nnsc1C(=O)Oc1ccc(C(C)C)cc1 the results were miR-21 reporter 1.9%, TDP1 block -2.6%, DT40 TDP1 no CPT 7.7% and TDP1 cell CPT 27.5%.
For CCOc1cc(CNc2cccc3[nH]c(C)nc23)ccc1OC the results were miR-21 reporter -4.5%, uPA generation -7.6%, DT40 TDP1 no CPT inconclusive and TDP1 cell CPT inconclusive.
`CCC(C)(C)n1nnnc1C(c1cccs1)N1CCCCC1` (centres undefined) gave miR-21 reporter -1.4%, TDP1 block 6.0%, uPA generation -11.1%, DT40 TDP1 no CPT 18.4µM* and TDP1 cell CPT inconclusive.
For c1ccc(CC2CCN(C(c3cccs3)c3nnnn3C3CCCC3)CC2)cc1 (centres undefined) the results were miR-21 reporter -6.6%, TDP1 block 4.5%, uPA generation -0.9%, DT40 TDP1 no CPT inconclusive and TDP1 cell CPT inconclusive.
For CCC(C)(C)n1nnnc1C(c1ccc2ncccc2c1)N1CCCCCC1 (centres undefined) the results were miR-21 reporter -12.6%, TDP1 block 2.7%, uPA generation 1.2%, DT40 TDP1 no CPT inconclusive and TDP1 cell CPT 11.2µM*.
`c1csc(C(c2nnnn2C2CCCCC2)N2CCCC3(CCCCC3)C2)c1` (centres undefined) gave miR-21 reporter -5.1%, TDP1 block 1.1%, uPA generation 1.2%, DT40 TDP1 no CPT 23.1µM* and TDP1 cell CPT inconclusive.
`CCN(CCNC(=O)C1CCCN(c2ncnc3c2nc2n3CCCCC2)C1)Cc1ccccc1` (centres undefined) gave miR-21 reporter 5.6%, TDP1 block 5.9%, uPA generation 9.5%, DT40 TDP1 no CPT 25.9µM* and TDP1 cell CPT inconclusive.
Screening CSc1ccc(CCNC(=O)C2CCCN(c3ncnc4c3nc3n4CCCCC3)C2)cc1 (centres undefined) returned miR-21 reporter -0.1%, TDP1 block 4.7%, uPA generation -2.8%, DT40 TDP1 no CPT inconclusive and TDP1 cell CPT inconclusive.
Screening CC(C)N(Cc1ccccc1)C(=O)C1CCCN(c2ncnc3c2nc2n3CCCCC2)C1 (centres undefined) returned miR-21 reporter 16.0%, TDP1 block 3.3%, uPA generation 6.6%, DT40 TDP1 no CPT 18.4µM* and TDP1 cell CPT inconclusive.
Screening CC(C)(C)C(=O)Nc1ccc(C(=O)COC(=O)C2=COCCO2)cc1 returned TDP1 block -0.2%, uPA generation 6.0%, DT40 TDP1 no CPT 7.9% and TDP1 cell CPT -0.4%.
For Cc1ccc(C2=CN(Cc3ccccc3)CCC2=O)cc1 the results were TDP1 block 1.7%, uPA generation -10.1%, DT40 TDP1 no CPT inconclusive and TDP1 cell CPT 20.6µM*.
`CCOC(=O)C1=CN(Cc2ccccc2)CCC1=O` gave uPA generation 20.4%, DT40 TDP1 no CPT -9.5% and TDP1 cell CPT -16.5%.
Screening O=C(Nc1ccc(C2=CN(Cc3ccccc3)CCC2=O)cc1)OCc1ccccc1 returned TDP1 block -2.0%, uPA generation 11.2%, DT40 TDP1 no CPT -10.3% and TDP1 cell CPT -3.4%.
For O=C1CCN(Cc2ccccc2)C=C1c1ccc(Br)cc1 the results were TDP1 block -2.3%, uPA generation inconclusive, DT40 TDP1 no CPT 23.1µM* and TDP1 cell CPT 18.4µM*.
For COc1ccc(S(=O)(=O)N2CCC(C)CC2)cc1OC the results were miR-21 reporter -7.9%, uPA generation -2.1%, DT40 TDP1 no CPT -9.4% and TDP1 cell CPT 7.0%.
Screening O=S(=O)(c1ccc2c(c1)C(=NO)c1cc(S(=O)(=O)N3CCCCC3)ccc1-2)N1CCCCC1 returned miR-21 reporter inconclusive, uPA generation -17.5%, DT40 TDP1 no CPT 2.91µM* and TDP1 cell CPT 4.11µM*.
`CN(C)N=C1c2cc(S(=O)(=O)N3CCOCC3)ccc2-c2ccc(S(=O)(=O)N3CCOCC3)cc21` gave miR-21 reporter 0.7%, TDP1 block 10.5%, uPA generation 1.5%, DT40 TDP1 no CPT 20.6µM* and TDP1 cell CPT inconclusive.
For O=S(=O)(c1ccc(S(=O)(=O)N2CCCC2)cc1)N1CCCCCC1 the results were miR-21 reporter -0.5%, TDP1 block 5.2%, uPA generation 5.0%, DT40 TDP1 no CPT -9.9% and TDP1 cell CPT 3.9%.
`CC1CCN(S(=O)(=O)c2ccc3c(c2)C(=NO)c2cc(S(=O)(=O)N4CCC(C)CC4)ccc2-3)CC1` gave miR-21 reporter -24.3%, TDP1 block 5.0%, uPA generation -15.0%, DT40 TDP1 no CPT 0.731µM* and TDP1 cell CPT 0.651µM*.
O=C(Nc1nnc(Cc2ccc(Cl)cc2)s1)C1CCCO1 (centres undefined) was read as miR-21 reporter -30.6%, TDP1 block -2.5%, uPA generation 0.1%, DT40 TDP1 no CPT inconclusive and TDP1 cell CPT -26.6%.
`COc1ccc(-c2nc(C(=O)N3CCN(C)CC3)sc2-c2ccc(OC)cc2)cc1` gave TDP1 block 22.0%, DT40 TDP1 no CPT -19.7% and TDP1 cell CPT -8.6%.
Nc1c(C(=O)N/N=C/c2ccccc2Cl)oc2nc(-c3ccccc3)cc(-c3ccco3)c12 was read as miR-21 reporter 0.5%, uPA generation 6.0%, DT40 TDP1 no CPT 20.6µM* and TDP1 cell CPT inconclusive.
`Nc1c(C(=O)N/N=C/c2ccc(F)cc2)oc2nc(-c3ccccc3)cc(-c3ccco3)c12` gave miR-21 reporter 8.2%, uPA generation -0.2%, DT40 TDP1 no CPT 10.3µM* and TDP1 cell CPT 23.1µM*.
